Apparent affinities of Ab-14 variants for a coronavirus HR2 peptide

Values reported by Li et al. 2023, doi:10.1038/s41467-023-39022-2 (FLAb copy).

All variants were tested on one target, the spike HR2 peptide PDVDLGDISGINAS (SARS-CoV-2).

Parent: Ab-14, a human scFv built as VH, the linker GGGGSGGGGSGGGGS, VL. Only the CDRs of the heavy chain vary.
VH: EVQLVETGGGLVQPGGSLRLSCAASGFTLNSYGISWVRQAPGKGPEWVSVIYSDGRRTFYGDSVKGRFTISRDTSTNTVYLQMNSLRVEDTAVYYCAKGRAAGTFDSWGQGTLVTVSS
VL: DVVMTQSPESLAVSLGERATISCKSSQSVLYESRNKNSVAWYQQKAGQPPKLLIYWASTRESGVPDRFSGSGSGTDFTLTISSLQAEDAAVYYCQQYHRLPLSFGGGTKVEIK

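The starting antibody came from a phage panning campaign against this peptide. This is the validation round: designs drawn from the data on random variants, tested in the same kind of assay. Their group label is 14H_En_Gibbs (En: ensemble of fine-tuned language models; Gibbs: Gibbs sampling). In AlphaSeq, yeast of one mating type display the scFv and yeast of the other type display the target. Mating (16 h, 30 °C) was followed by selection of diploids and sequencing of their barcodes. Each replicate has its own calibration line, from reference interactions of the BCL2 family. Mating was done six times.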

The parent's heavy chain CDRs are GFTLNSYGIS, VIYSDGRRTFYGDSVK, GRAAGTFDS; each variant's own CDRs replace them letter for letter. Values are log10 of the apparent Kd in nM; lower means stronger binding. A mean of the replicates is given; it leaves out those without a signal. "ND" means that the variant was in the library but no mating with the target was seen in that replicate; the authors take this as a sign of poor binding, and no number exists. Empty control strains, which show no peptide, gave a signal in 1% of pairings with all heavy chain designs; the median was 2.08 and 95% of these signals were weaker than 0.84. No background was subtracted. Also given: how often the same scFv was detected with the empty control strains, with their mean in brackets. The parent sequence was in this pool as ten entries: three were never detected, three once, and four in most replicates, with averages from 0.34 to 2.37. The range of this assay differs from that of the first round, and the authors advise against merging the two. The authors averaged sequences with at least three values out of six and counted those with two or fewer as poor binders.

CDR-H1	CDR-H2	CDR-H3	log10 Kd, replicates	log10 Kd (nM), mean	control signals
GFDINEYGIS	VIYADGMRQVYINKFK	GDSGGIINF	ND ND ND ND ND ND	ND	0 of 18
GDDLNEVGIS	VIYADGVRNQYIQSVK	GHVGGTFDY	ND ND ND ND ND ND	ND	1 of 18 (1.95)
GFDIKEYGIS	VIYADGMRTAYKPKVK	GNNTWLVDV	ND ND ND ND ND ND	ND	0 of 18
GESLEEYGIS	VIYADGIREQYVDSVK	GRQGGFFVV	ND ND ND ND ND ND	ND	0 of 18
GQSLEEYGIS	VIYADGFRTQYKNSVK	GKNSFDITV	ND ND ND ND ND ND	ND	0 of 18
GFDLNEYGIS	VIYADGKRTKYTDNVK	GTLTGTAVT	ND ND ND ND ND ND	ND	0 of 18
GFSLDEMGIS	VIYADGKRSFYQANVK	GVNSGTFNV	ND ND ND ND ND ND	ND	0 of 18
GFGLDEYGIS	VIYADGQRYAYKNSVK	GGDDITGLY	ND ND ND ND ND ND	ND	0 of 18
GFDLNEYGIS	VIYADGRQTFYTDNVK	GGNQGTAVL	ND ND ND ND ND ND	ND	0 of 18
GFEIQEYGIS	VIYADGRRQAYAESFK	GTLGGTFST	0.94 0.55 1.02 0.03 0.18 0.24	0.49	0 of 18
GQDLNEYGIS	VIYADGKRTAYEDSVK	GKSKGLIFV	ND ND ND ND ND ND	ND	0 of 18
GESLDEYGIS	VIYADGQRVKYSNNVK	GLHFGVFDM	ND ND ND ND ND ND	ND	0 of 18
GKDIQEYGIS	VIYADGARTAYSNSVK	GTQDGSLIV	ND ND ND ND ND ND	ND	0 of 18
GMSLDEYGIS	VIYADGRRQAYSDEVK	GEHGWFATI	ND ND ND ND ND ND	ND	0 of 18
GFEIQEFGIS	VIYADGRRTAYAENVK	GTLGGTFTT	ND ND ND ND ND ND	ND	0 of 18
GFELDEYGIS	VIYADGKRKAYDDSVK	GFRLGVKLI	ND ND ND ND ND ND	ND	0 of 18
GADLNEMGIS	VIYADGDRKAYQDAVK	GDVSGDFDE	ND ND ND ND ND ND	ND	0 of 18
GFNISEYGIS	VIYADGRRTAYKNTVK	GNLTWLFDV	ND ND ND ND ND ND	ND	0 of 18
GFDLDEYGIS	VIYADGIRSQYHDSVK	GTGGFDIEL	ND ND 4.18 ND ND ND	4.18	1 of 18 (1.56)
GFDINEYGIS	VIYADGRRKAYADSVK	GIDVYGKTV	ND ND ND ND ND ND	ND	0 of 18
GMDLDEYGIS	VIYADGSRVFYVQDVK	GTLDVVGDV	ND ND ND ND 1.45 ND	1.45	0 of 18
GFNLDQYGIS	VIYADGQRTQYANDVK	GHYAGSMLS	ND ND ND ND ND ND	ND	0 of 18
GFDLNEYGIS	VIYADGMRKRYAQNFK	GYNSSDLTV	ND ND ND ND ND ND	ND	0 of 18
GFEIQEYGIS	VIYADGRRTAYAENVK	GTLGGTFDT	-0.38 -0.32 -0.48 -0.25 0.30 -0.54	-0.28	0 of 18
GFDLQEQGIS	VIYADGKRTAYAQNVK	GYIVGDIFD	ND ND ND ND ND ND	ND	0 of 18
GFTLDEYGIS	VIYADGTRTAYIDDVK	GQMGGNGYV	ND ND ND ND ND ND	ND	1 of 18 (1.52)
GEDLDEYGIS	VIYADGQRTAYDESVK	GKIAGSFFH	ND ND ND ND ND ND	ND	0 of 18
GFNLDEFGIS	VIYADGNRTFYLDSFK	GTNVGTVDI	ND ND ND ND ND ND	ND	2 of 18 (2.60)
GFDIEEYGIS	VIYADGQRTMYKPTVK	GNHTGLVDI	ND ND ND ND ND ND	ND	0 of 18
GFEIDEYGIS	VIYADGRSRAYADDVK	GNDIGGFDL	ND ND ND ND ND ND	ND	1 of 18 (2.38)
GFDIEEFGIS	VIYADGQRLAYADEVK	GENAGSFDM	1.06 0.74 1.22 0.45 0.87 0.95	0.88	0 of 18
GFDFQEYGIS	VIYADGMRTNALDDVK	GNIGATFDD	ND ND ND ND ND ND	ND	0 of 18
GFKLDEFGIS	VIYADGLRMHYANSVK	GEMAGTFTT	1.97 1.08 1.31 1.66 1.19 2.01	1.54	0 of 18
GNDIEEYGIS	VIYADGQRVNAASQVK	GKQAGTFNL	ND ND ND ND ND ND	ND	1 of 18 (2.71)
GFDLEEYGVS	VIYADGIRFAYAQDVK	GQAAGAFDL	1.22 0.72 1.33 0.28 0.67 1.15	0.89	0 of 18
GFELDEYGIS	VIYADGHRRAYADKVK	GMHMGSVQH	ND ND 1.03 ND ND ND	1.03	0 of 18
GFDLEEYGIS	VIYADGLRSYYADNFK	GWNSGTIAV	ND ND ND ND ND ND	ND	0 of 18
GMDLQEYGIS	VIYSDGVREAYTNSFK	GQIAGTIDL	ND ND ND ND ND ND	ND	0 of 18
GESLEEYGIS	VIYADGMRNAYQSKVK	GTNSGDFTI	ND ND ND ND ND ND	ND	0 of 18
GFGLDEYGIS	VIYADGKRAYYHDNVK	GFNYGVDIL	ND ND 2.27 ND ND ND	2.27	1 of 18 (-0.35)
GFDLEEYGVS	VIYADGQRFAYAQDFK	GEAAGAFDL	0.62 0.57 0.38 -0.02 0.36 0.35	0.38	0 of 18
GFDLEKYGIS	VIYADGYRSAYAQNVK	GGHAGTFHF	ND ND ND ND ND ND	ND	0 of 18
GFNLEDYGIS	VIYADGSRSSYIESVK	GHWGADFIL	ND ND ND ND ND ND	ND	0 of 18
GFALDEYGIS	VIYADGSRTVYAGDVK	GMLGVNFDM	ND ND ND ND ND ND	ND	0 of 18
GGELDEYGIS	VIYADGIRRQYADNVK	GETADAFDM	1.83 ND ND ND ND ND	1.83	0 of 18
GRNLDEYGIS	VIYADGTRTSYRDNVK	GVTGGHLVT	ND ND ND ND ND ND	ND	0 of 18
GKDLEEYGIS	VIYADGRRSDYTDNVK	GHVGYIFMM	ND ND ND ND ND ND	ND	0 of 18
GVNLDEYGIS	VIYADGKRVHYTDKVK	GTFGDFGIV	ND ND ND ND ND ND	ND	0 of 18

Picked from the list: the 6 lowest averages where every replicate gave a value.

CDR-H1	CDR-H2	CDR-H3	log10 Kd, replicates	log10 Kd (nM), mean	control signals
GFEIQEYGIS	VIYADGRRTAYAENVK	GTLGGTFDT	-0.38 -0.32 -0.48 -0.25 0.30 -0.54	-0.28	0 of 18
GFDLEEYGVS	VIYADGQRFAYAQDFK	GEAAGAFDL	0.62 0.57 0.38 -0.02 0.36 0.35	0.38	0 of 18
GFEIQEYGIS	VIYADGRRQAYAESFK	GTLGGTFST	0.94 0.55 1.02 0.03 0.18 0.24	0.49	0 of 18
GFDIEEFGIS	VIYADGQRLAYADEVK	GENAGSFDM	1.06 0.74 1.22 0.45 0.87 0.95	0.88	0 of 18
GFDLEEYGVS	VIYADGIRFAYAQDVK	GQAAGAFDL	1.22 0.72 1.33 0.28 0.67 1.15	0.89	0 of 18
GFKLDEFGIS	VIYADGLRMHYANSVK	GEMAGTFTT	1.97 1.08 1.31 1.66 1.19 2.01	1.54	0 of 18